The test system of this assay is patients with NYHA Class II or III CHF. Description: Renal function in CHF patients after single intravenous dose (Example 1). To be noted: 0-2 hours, mean, single i.v. dose.

In turn, `CCCn1c(=O)c2nc(C3CC4CC3C3OC43)[nH]c2n(CCC)c1=O` [BG9719, 1,3-dipropyl-8-[5,6-exo-epoxy)-2(S) norbornyl] xanthine] showed an RPF of 334 mL/min/1.73 m^2.
